Data from patent US20190100761A1, “COMPOSITIONS AND METHODS FOR ENHANCED GENE EXPRESSION AND VIRAL REPLICATION” (priority 2016, published 2019).
Read-outs that look alike come from different tables or passages of the source.

Experiments:
AAV vector encoding GFP = test: AAV GFP vector packaged in 293T cells overexpressing YTHDF2, GFP by FACS; format: cell-based, Adeno Associated Virus; conditions: dilutions 1:2 to 1:2000, naive 293T cells, vs AAV from wildtype 293T
Description: An AAV vector encoding GFP was packaged in wildtype 293T cells or in a clonal 293T cell line overexpressing YTHDF2. Viral particles were isolated after cell lysis by sucrose gradient centrifugation and dilutions (1:2, 1:20, 1:200 and 1:2000) used to infect naive 293T cells and GFP expression then analyzed by FACS. Brown: negative control 293T cells, Blue: AAV derived from wildtype 293T Red: AAV derived from YTHDF2 overexpressing 293T cells.

[1] = system: AAV vector encoding luciferase; format: cell-based, Adeno Associated Virus

Q: Which results are given for “YTHDF2: human cytoplasmic m^6A reader protein, SEQ ID NO: 5, overexpressed in cells”?
A: GFP expressing cells after infection with AAV virions (AAV vector encoding GFP): higher levels of GFP expressing cells; enhancement of AAV vector production ([1]; 293T cells expressing YTHDF2 compared to wild type cells): ≥ 5 fold; Luciferase Expression ([1]; virus dilution 1:2): 26,610,600; Fold Increase ([1]; virus dilution 1:2, vs CTRL packaging cells): 4.5x; Luciferase Expression ([1]; virus dilution 1:20): 6,727,420; Fold Increase ([1]; virus dilution 1:20, vs CTRL packaging cells): 4.0x; Luciferase Expression ([1]; virus dilution 1:200): 1,186,033; Fold Increase ([1]; virus dilution 1:200, vs CTRL packaging cells): 4.5x; Luciferase Expression ([1]; virus dilution 1:2,000): 98,886; Fold Increase ([1]; virus dilution 1:2,000, vs CTRL packaging cells): 4.9x; Luciferase Expression ([1]; virus dilution 1:20,000): 8,303; Fold Increase ([1]; virus dilution 1:20,000, vs CTRL packaging cells): 4.1x; Luciferase Expression ([1]; virus dilution 1:200,000): 972; Fold Increase ([1]; virus dilution 1:200,000, vs CTRL packaging cells): 5.1x
